# Screening results (PubChem BioAssay)
# Shown are actives, neighbours in structure and some others; about 1.2% of the full set was active somewhere.
# Cneo AK release: Cryptococcus neoformans cell lysis inducers, primary screen, AK release luminescence, single concentration | C. neoformans lysis, adenylate kinase release luminescence, 4 h; normalised: neutral wells 0, clomiphene wells 100 | lysis activity, % at 15 µM | 360,000 tested, 0.2% active | AID 651654, 2012;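 active = mean lysis activity across replicates of at least 80%, whatever share of replicates individually reach that level; inactive = mean lysis activity below 80%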
#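 Material: C. neoformans cells | Amount: Yeast cell density of 5 × 10^6 cells/mL | Medium: Fresh YPD growth medium | Dosing: Single dose | Times: Static 4 h at 37 °C with compound, 1 h detection | Detection: AK luminescence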
# C2C12 statin: suppressors of statin myotoxicity in C2C12 myotubes, primary screen, cell-based, single point, plate reader; C2C12 myotubes + simvastatin, ATP luminescence, 48 h; scaled: DMSO 0, geranylgeraniol control 100; rescue of ATP level, % at 7.49 µM; 330,000 tested, 0.78% active;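 active = mean ATP rescue above about 67%, or every replicate alone reaching that limit, limit read from the data, passing the limit was not always enough; inconclusive = no clear call, values can overlap the other calls; inactive = mean under the limit and some replicate under it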;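 also: myotubes were challenged with 10 µM simvastatin during compound exposure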
# Yeast UUG start: modulators of start codon recognition fidelity in yeast; S. cerevisiae UUG-firefly luciferase reporter, luminescence/redox ratio; activity score, % at 18.7 µM; hit rate 0.13% among 350,000; AID 602363;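 active = replicate mean at a twofold rise or more, about +100% in these data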;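 note: firefly luciferase made from a UUG start codon reports start codon fidelity; reporter light over untreated wells divided by growth signal over untreated wells; some hits fall short of that in this replicate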
# miR122 inh: miR-122 Renilla sensor signal increase in Huh7, primary screen, miR-122 inhibitor project, cell-based, single point, plate reader. 340,000 tested, 0.3% active. activation (reporter increase), % at 12.5 µM. Huh7 miR-122 Renilla luciferase sensor, 48 h; neutral wells = 0, positive control = 100;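 active = mean replicate activation score at least 90 and every replicate individually at or above 90; inconclusive = only one of the two criteria met; inactive = neither criterion met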;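 also: higher luciferase means less miR-122 activity so hits act as miR-122 inhibitors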
# N-glyco inh: increase of ERlucT glycosylation luciferase signal, primary screen, N-linked glycosylation inhibitor project, D54 ERlucT cells, luminescence, set 2; reporter increase, % at 12.5 µM; 360,000 tested, 0.23% active; D54 ERlucT glycosylation luciferase reporter, 24 h; percent of 100 nM tunicamycin response;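 active = mean luciferase reporter signal, scaled so untreated is 0 and the glycosylation-blocking control 100, at or above a set limit in every replicate; inconclusive = mean reaches the limit but not every replicate does; inactive = mean below the limit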;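 also: luciferase carries N-glycosylation sites so blocking glycosylation raises the light; 0% = median of neutral control wells and 100% = median of 100 nM tunicamycin wells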
# Starred values were filed as active, the others as inactive; ? = inconclusive; / = no result given; [ ] = dose if it differs, or a comment.
# Keys: A = Cneo AK release; B = C2C12 statin; C = Yeast UUG start; D = miR122 inh; E = N-glyco inh
mol: CCCCn1c(=O)[nH]c(=O)c2c1nc(CN(C)Cc1cccc(OC)c1OC)n2CCC
  A = 2.4 | B = 5.9 | C = -1.4 | D = -2.2 | E = -0.8

mol: CCCCCn1c(CCC(=O)Oc2ccccc2OC)nc2c1c(=O)[nH]c(=O)n2CCCC
  A = 1.6 | B = 129.2* | C = -10.5 | D = -0.8 | E = 0.9

mol: CC(C)c1cccc(-c2ccc3c(c2)S(=O)(=O)c2cccc(C(=O)NCc4ccccc4Cl)c2C3=O)c1
  A = -1.1 | B = -15.0 | C = -15.5 | D = -3.6 | E = 196.9*

mol: O=C(NCc1cccc(F)c1)c1cccc2c1C(=O)c1ccc(N3CCCC3)cc1S2(=O)=O
  A = -1.1 | B = 10.6 | C = -0.3 | D = 9.2 | E = -0.3

mol: CC(C)c1cccc(-c2ccc3c(c2)S(=O)(=O)c2cccc(C(=O)NCc4ccccc4)c2C3=O)c1
  A = -6.3 | B = -70.8 | C = -17.7 | D = 0.9 | E = 92.0*

mol: O=C(NCc1ccccc1Br)c1cccc2c1C(=O)c1ccc(-c3ccc(OC(F)(F)F)cc3)cc1S2(=O)=O
  A = -1.2 | B = -47.0 | C = -14.0 | D = 2.1 | E = 156.2*

mol: COc1ccc(-c2ccc3c(c2)S(=O)(=O)c2cccc(C(=O)NCc4ccccc4Cl)c2C3=O)cc1OC
  A = -1.8 | B = -4.2 | C = -17.4 | D = 1.3 | E = -6.1

mol: COc1ccc([Si](C)(C)[C@@H]2[C@@H](CCn3cc([C@H](O)c4ccccc4)nn3)O[C@]3(C(=O)N(C)c4ccccc43)[C@H]2C)cc1
  A = -2.2 | B = / | C = 7.0 | D = / | E = /

mol: O=C(c1cc(F)c(F)cc1Cl)N1CCN(c2ncccn2)CC1
  A = -4.6 | B = -1.7 | C = -11.1 | D = -8.4 | E = -0.2

mol: C[C@@H]1CN([C@@H](C)CO)C(=O)c2cc(NS(=O)(=O)c3ccc(F)cc3)ccc2O[C@@H](C)CCCCO[C@H]1CN(C)S(=O)(=O)c1cn(C)cn1
  A = -1.7 | B = -0.5 | C = -1.6 | D = 5.5[16.7 µM] | E = /

# Reformatted: entries from further up.
# Sequence of screens: Cneo AK release	C2C12 statin	Yeast UUG start	miR122 inh	N-glyco inh
- CCCCn1c(=O)[nH]c(=O)c2c1nc(CN(C)Cc1cccc(OC)c1OC)n2CCC
 : 2.4	5.9	-1.4	-2.2	-0.8
- CCCCCn1c(CCC(=O)Oc2ccccc2OC)nc2c1c(=O)[nH]c(=O)n2CCCC
 : 1.6	129.2*	-10.5	-0.8	0.9

# The results go on:
# Keys: A = Cneo AK release; B = C2C12 statin; C = Yeast UUG start; D = miR122 inh; E = N-glyco inh
mol: COc1ccccc1CN1[C@@H]2CN(C(=O)C3CCOCC3)c3ccccc3[C@@H]2[C@@H]1CO
  A = -9.9 | B = 8.5 | C = -3.5 | D = 28.8[16.7 µM] | E = /

mol: C[C@@H]1CN([C@H](C)CO)C(=O)c2cc(-c3ccccc3)cnc2O[C@H]1CN(C)Cc1ccccn1
  A = 0.4 | B = 9.8 | C = -20.6 | D = 16.5[16.7 µM] | E = /

mol: CCCC(=O)Nc1ccc2c(c1)C(=O)N(C)C[C@H](OC)[C@H](C)CN(C(=O)CC1CC1)[C@@H](C)CO2
  A = 61.6 | B = -6.4 | C = / | D = / | E = /

mol: CCCNC(=O)N1[C@H](CO)[C@@H](c2ccc(C3=CCCC3)cc2)[C@@H]1CN(C)C(C)=O
  A = 87.3* | B = 10.9 | C = 52.6 | D = -7.1[16.7 µM] | E = /

mol: CC(=O)NC[C@H]1[C@@H](c2ccc(C3=CCCC3)cc2)[C@@H](CO)N1C(=O)NC(C)C
  A = 119.7* | B = -6.9 | C = 31.4 | D = 21.4[16.7 µM] | E = /

mol: CC(=O)NC[C@@H]1[C@@H](c2ccc(C3=CCCC3)cc2)[C@H](CO)N1C(=O)NC(C)C
  A = 14.9 | B = 11.7 | C = 2.9 | D = 28.6[16.7 µM] | E = /

mol: CCCNC(=O)N1[C@H](CO)[C@@H](c2ccc(C3=CCCC3)cc2)[C@H]1CNC(C)=O
  A = 0.3 | B = 0.6 | C = 1.0 | D = -7.1[16.7 µM] | E = /

mol: CCCN1C[C@@H](C)[C@@H](OC)CN(C)C(=O)c2cc(NS(=O)(=O)CC)ccc2OC[C@@H]1C
  A = 56.6 | B = -18.3 | C = 12.5 | D = 0.8[16.7 µM] | E = /

mol: CC=Cc1ccc2n(c1=O)C[C@@H]1[C@@H](CO)[C@H](C(=O)N[C@H](C)c3ccccc3)N(C)[C@H]21 (mixture of isomers)
  A = 0.3 | B = 2.7 | C = / | D = 14.3[16.7 µM] | E = /

mol: CCCC(=O)Nc1c(C(=O)OCC)[nH]c2ccccc12
  A = 1.5 | B = -0.8 | C = -18.6 | D = 7.7 | E = 2.6

mol: CCOC(=O)c1[nH]c2ccccc2c1NC(=O)Nc1ccc(OC)cc1
  A = -0.2 | B = 119.3* | C = -10.7 | D = 3.5 | E = 1.7

mol: CCCNC(=O)C[C@H]1CC[C@H]2[C@@H](COc3ccc(NS(=O)(=O)CC)cc3C(=O)N2C)O1
  A = -0.1 | B = 3.1 | C = -8.8 | D = -2.4[16.7 µM] | E = /

mol: O=C(NCCC1=CCCCC1)C1CCC(CNc2nc(=S)[nH]c3ccccc23)CC1 (stereo not drawn)
  A = -1.6 | B = -45.0 | C = -7.4 | D = -0.2 | E = 58.4*

mol: COc1ccccc1NC(=O)N[C@@H]1CC[C@H](CCn2cc(-c3ccccc3OC)nn2)O[C@H]1CO
  A = 106.6* | B = -6.1 | C = 3.2 | D = / | E = /

mol: CCC(=O)N[C@@H]1CC[C@H](CCn2cc(-c3cccc(OC)c3)nn2)O[C@H]1CO
  A = 0.2 | B = 1.6 | C = -5.4 | D = / | E = /

mol: COc1ccccc1NC(=O)N[C@@H]1CC[C@@H](CCn2cc(C3(O)CCCC3)nn2)O[C@@H]1CO
  A = -0.3 | B = 10.6 | C = / | D = -3.1[16.7 µM] | E = /

mol: COc1ccccc1NC(=O)N[C@@H]1CC[C@@H](CCn2cc(C3(O)CCCC3)nn2)O[C@H]1CO
  A = 94.3* | B = -11.2 | C = / | D = 0.3[16.7 µM] | E = /

mol: COc1cccc(-c2cn(CC[C@@H]3CC[C@@H](NC(C)=O)[C@H](CO)O3)nn2)c1
  A = 113.5* | B = -3.3 | C = 24.6 | D = / | E = /

mol: COc1ccccc1NC(=O)N[C@@H]1CC[C@@H](CCn2cc(-c3ccccc3OC)nn2)O[C@@H]1CO
  A = -0.1 | B = 4.5 | C = -8.6 | D = / | E = /

mol: O=C(C1CC1)N1C[C@@H]2[C@H](c3ccccc31)[C@@H](CO)N2C(=O)c1ccccn1
  A = -2.4 | B = -6.3 | C = -12.3 | D = 1.8[16.7 µM] | E = /

mol: CCOC(=O)c1c(C)[nH]c(-c2csc(N)n2)c1C
  A = / | B = / | C = / | D = / | E = 27.4*

mol: Cc1ccc(-n2nnnc2-c2cnc3ccc(Cl)cc3c2-c2ccccc2)cc1
  A = 5.6 | B = -17.3 | C = -14.5 | D = 3.1 | E = 3.8

mol: Clc1ccc2[nH]cc(-c3nnnn3-c3ccc4ccccc4c3)c2c1
  A = / | B = / | C = / | D = 212.4* | E = -6.5

mol: N/C(=N\OC(=O)c1cccc(Br)c1)c1ccc(Br)cc1
  A = 0.3 | B = 95.8* | C = 3.2 | D = 8.0 | E = 1.7

mol: N/C(=N\OC(=O)c1ccc(Br)cc1)c1ccccc1
  A = / | B = -9.5 | C = / | D = 0.7 | E = -14.0

mol: COc1ccccc1-c1ccc2n(c1=O)C[C@@H]1[C@@H](CO)[C@H](C(=O)NC3CCC3)N(C(=O)NC(C)C)[C@H]21
  A = -0.3 | B = -18.0 | C = / | D = 2.9[16.7 µM] | E = /

mol: Cc1cccc(NS(=O)(=O)c2ccc(C3CCCCC3)cc2)c1
  A = 4.0 | B = / | C = -17.0 | D = ? | E = /

mol: COc1ccc(S(=O)(=O)Nc2ccc(CC#N)cc2)cc1
  A = 0.9 | B = -5.5 | C = -9.0 | D = 163.9* | E = 0.3

mol: N#CCc1ccc(NS(=O)(=O)c2ccc(C3CCCCC3)cc2)cc1
  A = -1.9 | B = / | C = -11.0 | D = 182.4* | E = -4.4

mol: COC(=O)c1ccc(NS(=O)(=O)c2ccc(OC)cc2)cc1
  A = -1.9 | B = -38.7 | C = 3.3 | D = 13.3 | E = 1.0

# 3 compounds already listed, ordered by count of non-hydrogen atoms, lowest first.
# Keys: A = Cneo AK release; B = C2C12 statin; C = Yeast UUG start; D = miR122 inh; E = N-glyco inh
mol: CCOC(=O)c1c(C)[nH]c(-c2csc(N)n2)c1C
  A = / | B = / | C = / | D = / | E = 27.4*

mol: COc1ccc(S(=O)(=O)Nc2ccc(CC#N)cc2)cc1
  A = 0.9 | B = -5.5 | C = -9.0 | D = 163.9* | E = 0.3

mol: N#CCc1ccc(NS(=O)(=O)c2ccc(C3CCCCC3)cc2)cc1
  A = -1.9 | B = / | C = -11.0 | D = 182.4* | E = -4.4

# The list continues:
# Keys: A = Cneo AK release; B = C2C12 statin; C = Yeast UUG start; D = miR122 inh; E = N-glyco inh
mol: CN(C)CC(=O)N[C@H]1CC[C@@H](CCn2cc(C3CCCC3)nn2)O[C@@H]1CO
  A = 42.4 | B = 2.1 | C = 3.9 | D = / | E = /

mol: O=C(N/N=C\c1ccc(CNS(=O)(=O)c2ccccc2)o1)C(=O)Nc1ccc(F)cc1
  A = / | B = / | C = 12.0 | D = 0.0 | E = 1.2

mol: O=C(N/N=C\c1ccc(CNS(=O)(=O)c2ccc(Cl)cc2)o1)C(=O)Nc1ccc(Oc2ccccc2)cc1
  A = / | B = / | C = / | D = / | E = 51.8*

mol: C[C@@H]1CN([C@@H](C)CO)C(=O)c2cc(NS(=O)(=O)c3ccccc3)ccc2O[C@H]1CN(C)Cc1ccncc1
  A = -0.9 | B = 19.2 | C = 5.7 | D = 1.6[16.7 µM] | E = /
